The results in this text go back to ChEMBL document CHEMBL1133846, “The discovery of anthranilic acid-based MMP inhibitors. Part 3: incorporation of basic amines” (Bioorg Med Chem Lett, 2001).

In this experiment the target is Collagenase 3 (Homo sapiens, UniProt P45452). The experiment can be described thus: In vitro inhibition of Matrix metalloprotease-13.

pIC50: −log10 of the molar value.

Turning to `COc1ccc(S(=O)(=O)N(Cc2cccnc2)c2c(C)cccc2C(=O)NO)cc1`, the pIC50 is 7.74.

As usually defined, the pIC50 is the negative decadic logarithm of the IC50, by convention in mol/L. A low value points to a high IC50.
